Experimental data reported in PMC9420430 (Current Research in Immunology, 2022).

Test system: β2m
Assay: Thermal stability by nanoscale differential scanning fluorimetry, β2m
Parameters: species or system human
Details: no reagent; β2m alone, citrate-phosphate buffer pH 7.6, 1.0 °C/min

β2m: (human) beta-2 microglobulin gave a Tm of 65.5 °C.
